These are literature values, as cited in paper PMC9539897 (Angewandte Chemie (International Ed. in English), 2022).

Amino acid sequences for entries named in this document (tags omitted). Residues count along the entry.
UniProt P00748, 373-615 limits assumed: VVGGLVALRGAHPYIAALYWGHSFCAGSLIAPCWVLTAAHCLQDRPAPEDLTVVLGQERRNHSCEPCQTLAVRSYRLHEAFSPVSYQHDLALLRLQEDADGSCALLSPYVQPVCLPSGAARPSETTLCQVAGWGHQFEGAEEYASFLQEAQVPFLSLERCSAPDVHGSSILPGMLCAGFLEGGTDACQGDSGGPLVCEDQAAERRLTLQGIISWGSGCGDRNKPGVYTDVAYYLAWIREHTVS

Broadly, the Ki is the dissociation constant of the complex between target and ligand, obtained from inhibition or displacement.

The target in this series is factor XIIa (FXIIa) (Homo sapiens, UniProt P00748). The note with it: read-out: Ki FXIIa.

Regarding “Momordica cochinchinensis trypsin inhibitor‐II [cyclic MCoTI‐II]”, the inhibitory constant (Ki) was 129 ± 9 nM.
